Measured values: patent US20190343953A1, “ANTI-CANCER TREATMENTS WITH AN ANTI-MUC1 ANTIBODY AND AN ERBB INHIBITOR” (Glycotope GmbH, priority 2017, published 2019)

Experiments:
Assay type in all cases: cell-based, human
HSC4 = assay: Cytotoxicity assay of SeeloMab (PankoMab-ADC) after EGFR inhibitor pre-incubation, Celltiter-Glo; settings: 3 days pre-incubation with 1 μM erlotinib, 0.1 μM afatinib or 10 μg/ml cetuximab, viability after 4 days
cancer cells = assay: Cytotoxicity assay of SeeloMab (PankoMab-ADC), statements for the cancer cells in general; settings: pretreated for 3 days vs non-pretreated
Procedure: The cytotoxic potential of a TA-MUC1 targeting antibody drug conjugate (ADC) was investigated using SeeloMab, the ADC format of PankoMab with a microtubule inhibitor as toxin. Therefore, cells were pre-incubated for 3 days with an optimum concentration of EGFR inhibitor. […] After 3 days the antigen expression was confirmed by flow cytometry and cells were seeded at equal cell density (5000 cells/well) into the wells of a microtiter plate. Cells were incubated with different concentrations of SeeloMab, an isotype matched control ADC and unconjugated PankoMab served as negative control. After 4 days viability of the cells was measured using Celltiter-Glo Luminescent Cell Viability Assay (Promega) and percent proliferation was calculated relative to medium control.

DU145 = assay: Cytotoxicity assay of SeeloMab (PankoMab-ADC) after EGFR inhibitor pre-incubation, Celltiter-Glo; settings: 3 days pre-incubation with 1 μM erlotinib, 0.1 μM afatinib or 10 μg/ml cetuximab, viability after 4 days

Cetuximab: anti-EGFR antibody, EGFR inhibitor
Maximum IC50 ratio of EGFRi pretreated group compared to non-pretreated group (HSC4): 1.8
reduction of proliferation by anti-TA-MUC1 ADC when cancer cells were pretreated with EGFR inhibitor (cancer cells): significantly stronger
Maximum IC50 ratio of EGFRi pretreated group compared to non-pretreated group (DU145): 1.3
